Earlier results on one compound are cited in patent US7884133B2, “Pharmaceutical compositions containing (+) cannabidioil and derivatives thereof and some such novel derivatives” (priority 2003, dated 2011).

The chains behind the UniProt entries cited, without tags or fusion partners.
UniProt P34972, whole entry: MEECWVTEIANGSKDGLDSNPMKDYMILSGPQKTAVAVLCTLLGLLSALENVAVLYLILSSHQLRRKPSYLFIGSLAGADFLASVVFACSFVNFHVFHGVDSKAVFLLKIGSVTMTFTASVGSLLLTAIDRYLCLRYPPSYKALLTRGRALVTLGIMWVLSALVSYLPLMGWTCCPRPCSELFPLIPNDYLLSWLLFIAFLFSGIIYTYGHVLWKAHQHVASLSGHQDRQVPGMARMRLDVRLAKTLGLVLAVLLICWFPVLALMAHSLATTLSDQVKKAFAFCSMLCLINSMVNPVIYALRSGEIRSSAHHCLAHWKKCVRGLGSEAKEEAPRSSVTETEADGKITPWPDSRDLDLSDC

Each structure is given as a SMILES string.

In this data set the target is CB2 receptor (Homo sapiens, UniProt P34972). As to conditions: read-out: CB2 Receptor Binding (Ki); second value of CB1/CB2 cell; data from Bisogno et al., 2001; cited from earlier work.

Regarding `C=C(C)C1CCC(C)=CC1c1c(O)cc(CCCCC)cc1O` (single isomer, unassigned; (+)) [+CBD, (+)-CBD], the Ki is 200 nM.

For orientation: Ki means a dissociation constant, usually derived from enzyme kinetics or from competition with a known ligand.
